Values quoted from earlier work in paper PMC6166790 (Nature, 2018).
Read-outs that look alike come from different tables or passages of the source.

Experiments:
[1] = system: RAMP1 D113A (CGRP receptor); details: RAMP1 D113^RA mutation
CTR and CLR with RAMP1 = details: CTR or CLR with RAMP1
[2] = system: models of inflammatory bowel disease, and hypertension
[3] = system: CLR alanine mutants (CGRP receptor)

Substance: Calcitonin gene-related peptide [CGRP]
- CGRP potency at mutant [1]: small decrease in CGRP potency
- affinity of receptor for CGRP (CTR and CLR with RAMP1): high affinity
- receptor response selectivity (CLR/RAMP1): selective response to CGRP
- protective effect [2]: protective in models of inflammatory bowel disease, and hypertension
- CGRP mediated cAMP signalling at mutant ([3]; CLR D280^ECL2 mutagenesis): greatly impacts CGRP mediated cAMP signalling
- CGRP potency at mutant ([3]; CLR D287^ECL2 mutant): relatively limited effects on CGRP potency
- CGRP-mediated cAMP production, role of ECL3 ([3]; CLR ECL3 alanine mutagenesis): limited role of this domain in CGRP-mediated cAMP production
- CGRP potency at mutant ([3]; CLR H289^5.34/ECL2 mutant): no impact
- CGRP potency at mutant ([3]; CLR H289^ECL2 mutant): relatively limited effects on CGRP potency
- CGRP signalling at mutant ([3]; CLR I284^ECL2 alanine mutant): marked impairment in CGRP signalling
- CGRP peptide potency at mutant ([3]; CLR N200^ECL1 alanine): no impact on CGRP peptide potency
- CGRP peptide potency at mutant ([3]; CLR Q202^ECL1 alanine): no impact on CGRP peptide potency
- CGRP potency at mutant ([3]; CLR S286^ECL2 mutant): relatively limited effects on CGRP potency
- CGRP signalling at mutant ([3]; CLR T191^2.64 alanine mutant): marked impairment in CGRP signalling
- CGRP potency at mutant ([3]; CLR T239^3.56 mutant): no impact
- CGRP peptide potency at mutant ([3]; CLR V205^ECL1 alanine): no impact on CGRP peptide potency
- CGRP potency at mutant ([3]; CLR V243^ICL2 mutant): no impact
- CGRP potency at mutant ([3]; CLR W254^4.44 mutant): decreased CGRP potency
- CGRP signaling at mutant ([3]; CLR W283^ECL2 to alanine): highly detrimental to CGRP signaling
- CGRP potency at mutant ([3]; CLR Y278^ECL2 mutant): decreased CGRP potency
